Measured values taken from PMC11356839, “The Synthesis of SNAC Phenolate Salts and the Effect on Oral Bioavailability of Semaglutide” (Molecules, 2024).

Conditions: rat, in vivo
Description: All compounds are powders.
IV solution was prepared by dissolving semaglutide in water containing disodium phosphate (0.014% w/v), propylene glycol (0.144% w/v), and phenol (0.056% w/v). The solution was diluted by 3 to reach semaglutide concentration of 0.046mg/mL and filtrated by a sterile 0.22 μm syringe filter.
Pharmacokinetic study protocol: Male Wistar rats (275–300 g, Harlan, Israel) were kept under a 12 h light/dark cycle, with free access to food and water. Animals were anesthetized, and an indwelling cannula was placed into the right jugular vein for systemic blood sampling. The cannula was tunneled beneath the skin and exteriorized at the dorsal part of the neck. The animals were transferred to individual cages to recover overnight (12–18 h). Throughout the experiments, free access to food was available 4 h post-oral administration.
Oral SNAC or salt formulations were dispersed in distilled water and then administrated by oral gavage (~1.2 mL for a rat to get semaglutide dose of 12 mg/kg). Blood samples (0.36 mL) were obtained by intravenous cannula, placed into the jugular vein. In the case of oral administration, samples were taken at 5 min pre-dose intervals and at different time points post-dose, according to the pharmacokinetic profile (no more than 10% of rat blood volume was drawn). To prevent dehydration, physiological solutions were administered, following each blood sampling. Plasma was separated by centrifugation (4000 rpm, 7 min, 4 °C) and stored at −20 °C until use.
Plasma samples were analyzed by a developed LC-MS method for semaglutide.
Absolute bioavailability values and other pharmacokinetic observations were assessed by comparison to intravenous bolus of semaglutide.
Semaglutide in plasma was performed in an Eppendorf® tube by mixing 150 μL of the plasma sample with 150 μL acetonitrile (ACN) and 15 μL of 5% formic acid (FA) and vortexed for 5 min. The tube was centrifuged at 15 °C, 6000 rpm for 6 min. Then, 160 μL of the supernatant was collected in a new tube. A second extraction was performed for the remaining precipitant by adding 60 μL of 5% FA, followed by mixing and centrifugation. Supernatant, 50 μL, was transferred into a tube. The solvent was evaporated to dryness, reconstituted with 50 μL 5% FA, and analyzed by an LC-MS system. Semaglutide standards were prepared by spiking semaglutide solutions in 5% FA into plasma to obtain final concentrations of 1–0.005 μg/mL. The same extraction procedure was performed on the standards as well.
MS/MS analyses were determined on a Sciex (Framingham, MA, USA) QTRAP® 6500^+ mass spectrometer). […]

- Fabs (Absolute bioavailability): 0.113 ± 0.01%
- AUC0−8 (po, 12 mg/kg): 2031 ± 193 ng·h/mL
- AUC0−∞ (po, 12 mg/kg): 2281 ± 197 ng·h/mL
- Cmax (po, 12 mg/kg): 494 ± 63 ng/mL
Substance: SNAC–choline
